Measurements reported in US7276339B2 (H. Lundbeck A/S, priority 1998, dated 2007).

By UniProt entry, the sequences of proteins in these tests, tags left out. Where a name states a change or a piece, a line headed by the entry shows the natural chain unless it says otherwise.
UniProt Q9EP86: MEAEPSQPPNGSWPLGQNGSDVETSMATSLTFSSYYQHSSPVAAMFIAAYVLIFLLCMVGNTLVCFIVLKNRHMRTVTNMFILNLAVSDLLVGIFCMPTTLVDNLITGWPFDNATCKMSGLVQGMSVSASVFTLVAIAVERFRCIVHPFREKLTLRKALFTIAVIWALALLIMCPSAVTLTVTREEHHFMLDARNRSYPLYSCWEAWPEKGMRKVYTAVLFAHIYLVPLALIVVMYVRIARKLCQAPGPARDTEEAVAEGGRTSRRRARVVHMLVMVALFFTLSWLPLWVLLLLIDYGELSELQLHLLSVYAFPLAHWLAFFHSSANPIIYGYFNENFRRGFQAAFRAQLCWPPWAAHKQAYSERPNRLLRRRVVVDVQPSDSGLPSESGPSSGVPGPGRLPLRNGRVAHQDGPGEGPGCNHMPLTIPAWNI

Molecular target: rat NPFF1 receptor (Rattus norvegicus, UniProt Q9EP86)
Assay: [125I]D-Tyr-NPFF radioligand binding, membranes of COS-7 cells transiently expressing cloned rat NPFF1
Parameters: expressed in transfected cells; host or cells: COS-7 (transient)
Details: competition of [125I]D-Tyr-NPFF binding; COS-7 membranes
Procedure: Transfected cells from culture flasks are scraped into 5 ml of 20 mM Tris-HCl, 5 mM EDTA, pH 7.5, and lysed by sonication. The cell lysates are centrifuged at 1000 rpm for 5 min. at 4° C., and the supernatant is centrifuged at 30,000×g for 20 min. at 4° C. […] Optimal membrane suspension dilutions, defined as the protein concentration required to bind less than 10% of the added radioligand, […], unlabeled compounds, and binding buffer to a final volume of 250 μl. In equilibrium saturation binding assays membrane preparations are incubated in the presence of increasing concentrations of [^3H]-labeled compound. […] Competition assay: 50 pM radioligand, 10-12 points. Binding reaction mixtures are incubated for 2 hr at 25° C., and the reaction stopped by filtration through a double layer of GF filters treated with 0.1% polyethyleneimine, using a cell harvester. Wash buffer: 50 mM Tris-HCl, 0.1% BSA. Radioactivity may be measured by scintillation counting and data are analyzed by a computerized non-linear regression program. Non-specific binding is defined as the amount of radioactivity remaining after incubation of membrane protein in the presence of 1 μM final concentration […]. Protein concentration may be measured by the Bradford method using Bio-Rad Reagent, with bovine serum albumin as a standard. […]

| Substance | pKi for cloned rat NPFF1 receptor binding in COS-7 cells, MEAN |
| --- | --- |
| Dynorphin A1-13 | 6.838 |
| ibogaine | ≤ 5 |
